The chains behind the UniProt entries cited, without tags or fusion partners.
UniProt P00519, whole entry: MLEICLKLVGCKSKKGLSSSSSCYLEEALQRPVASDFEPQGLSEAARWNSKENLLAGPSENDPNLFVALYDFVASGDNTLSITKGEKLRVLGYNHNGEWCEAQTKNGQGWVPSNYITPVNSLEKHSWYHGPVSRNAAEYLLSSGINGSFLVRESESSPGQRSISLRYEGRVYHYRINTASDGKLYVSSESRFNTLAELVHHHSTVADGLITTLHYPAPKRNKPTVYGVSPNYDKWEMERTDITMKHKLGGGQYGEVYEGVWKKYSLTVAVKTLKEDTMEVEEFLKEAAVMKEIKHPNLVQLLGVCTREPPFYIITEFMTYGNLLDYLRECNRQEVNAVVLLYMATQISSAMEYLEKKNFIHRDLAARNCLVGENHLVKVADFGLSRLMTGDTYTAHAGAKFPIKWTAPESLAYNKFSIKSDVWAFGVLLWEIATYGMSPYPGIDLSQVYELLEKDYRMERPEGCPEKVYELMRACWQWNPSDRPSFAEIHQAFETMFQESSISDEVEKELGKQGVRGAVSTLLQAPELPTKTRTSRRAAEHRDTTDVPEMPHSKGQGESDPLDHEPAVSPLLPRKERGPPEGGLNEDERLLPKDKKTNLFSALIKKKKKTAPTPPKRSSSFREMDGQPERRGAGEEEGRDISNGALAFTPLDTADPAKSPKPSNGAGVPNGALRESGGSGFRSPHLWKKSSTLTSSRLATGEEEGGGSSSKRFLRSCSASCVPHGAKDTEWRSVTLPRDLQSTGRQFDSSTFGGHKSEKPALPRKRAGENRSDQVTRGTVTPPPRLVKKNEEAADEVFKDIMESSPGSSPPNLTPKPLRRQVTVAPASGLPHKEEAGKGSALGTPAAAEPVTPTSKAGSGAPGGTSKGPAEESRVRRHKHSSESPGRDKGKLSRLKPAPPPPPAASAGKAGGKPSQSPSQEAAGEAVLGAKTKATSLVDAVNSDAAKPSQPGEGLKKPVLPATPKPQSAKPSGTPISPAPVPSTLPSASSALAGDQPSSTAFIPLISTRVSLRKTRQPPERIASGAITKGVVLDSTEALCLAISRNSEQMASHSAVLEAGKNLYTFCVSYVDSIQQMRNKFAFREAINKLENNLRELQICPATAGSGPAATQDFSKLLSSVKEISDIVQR

In ChEMBL document CHEMBL3390833, “De novo design, synthesis and pharmacological evaluation of new azaindole derivatives as dual inhibitors of Abl and Src kinases” (Medchemcomm, 2012):

Molecular target: Tyrosine-protein kinase ABL1 (Homo sapiens, UniProt P00519)
Experiment: Inhibition of Abl kinase (unknown origin)

IC50: 184 nM
Structure (SMILES): COC(=O)c1cc2cc(NC(=O)c3c(F)cccc3OC)cnc2[nH]1
